What was measured:
purified HLA DRB1 *0405 = purified HLA DRB1 *0405 (Homo sapiens, UniProt P01903+P01911, A100R/A169T/D86S/F76Y/I96L/K127E/L162R/M171V/N62H/P40V/Q125Y/R42H/S133A/S149N/S66Y/V115G/V209L/W38E); assay: HLA-DR binding assay
purified HLA DRB1 *1302 = purified HLA DRB1 *1302 (Homo sapiens, UniProt P01903+P01911, A100E/A169T/K41T/L162R/M171V/P40S/Q125H/Q178H/Q39Y/Q99D/R42S/S66N/T262R/V115G/W38E/Y61H); assay: HLA-DR binding assay

Question: How did the IC50 (purified HLA DRB1 *0405) turn out when `CC[C@H](C)[C@H](NC(=O)[C@@H](NC(=O)[C@H](CCCCN)NC(=O)[C@@H](NC(=O)[C@@H](NC(=O)[C@@H](NC(=O)[C@@H](N)CCCNC(=N)N)[C@@H](C)O)[C@@H](C)O)C(C)C)[C@@H](C)O)C(=O)N[C@H](C(=O)N[C@H](C(=O)N[C@@H](CO)C(=O)N[C@@H](C)C(=O)N[C@@H](CCC(=O)O)C(=O)N[C@@H](CC(C)C)C(=O)N1CCC[C@H]1C(=O)N[C@@H](CCCCN)C(=O)O)C(C)C)[C@@H](C)O` [CEA.488] was run?
Answer: The IC50 was 11 nM.

Question: And the IC50 (purified HLA DRB1 *1302)?
Answer: Its IC50 is 96 nM.

— PMC3667390 (Cancer immunology, immunotherapy : CII, 2009)
